Earlier results in US20200206183A1, “SYSTEMS, METHODS, AND FORMULATIONS FOR TREATING CANCER” (Research Cancer Institute of America, priority 2011, published 2020).

Details: subcutaneous application

Substance: Octreotide
- Absorption: absorbed quickly and completely
- Time to maximal plasma concentration: 30 min
